The values that follow come from PMC3785545 (Analytical biochemistry, 2013).

Sequences of proteins named here, by UniProt entry; tags and fusion partners are left off. A change or cut given only in a name is not applied to a line headed by its entry.
UniProt P08183, whole entry: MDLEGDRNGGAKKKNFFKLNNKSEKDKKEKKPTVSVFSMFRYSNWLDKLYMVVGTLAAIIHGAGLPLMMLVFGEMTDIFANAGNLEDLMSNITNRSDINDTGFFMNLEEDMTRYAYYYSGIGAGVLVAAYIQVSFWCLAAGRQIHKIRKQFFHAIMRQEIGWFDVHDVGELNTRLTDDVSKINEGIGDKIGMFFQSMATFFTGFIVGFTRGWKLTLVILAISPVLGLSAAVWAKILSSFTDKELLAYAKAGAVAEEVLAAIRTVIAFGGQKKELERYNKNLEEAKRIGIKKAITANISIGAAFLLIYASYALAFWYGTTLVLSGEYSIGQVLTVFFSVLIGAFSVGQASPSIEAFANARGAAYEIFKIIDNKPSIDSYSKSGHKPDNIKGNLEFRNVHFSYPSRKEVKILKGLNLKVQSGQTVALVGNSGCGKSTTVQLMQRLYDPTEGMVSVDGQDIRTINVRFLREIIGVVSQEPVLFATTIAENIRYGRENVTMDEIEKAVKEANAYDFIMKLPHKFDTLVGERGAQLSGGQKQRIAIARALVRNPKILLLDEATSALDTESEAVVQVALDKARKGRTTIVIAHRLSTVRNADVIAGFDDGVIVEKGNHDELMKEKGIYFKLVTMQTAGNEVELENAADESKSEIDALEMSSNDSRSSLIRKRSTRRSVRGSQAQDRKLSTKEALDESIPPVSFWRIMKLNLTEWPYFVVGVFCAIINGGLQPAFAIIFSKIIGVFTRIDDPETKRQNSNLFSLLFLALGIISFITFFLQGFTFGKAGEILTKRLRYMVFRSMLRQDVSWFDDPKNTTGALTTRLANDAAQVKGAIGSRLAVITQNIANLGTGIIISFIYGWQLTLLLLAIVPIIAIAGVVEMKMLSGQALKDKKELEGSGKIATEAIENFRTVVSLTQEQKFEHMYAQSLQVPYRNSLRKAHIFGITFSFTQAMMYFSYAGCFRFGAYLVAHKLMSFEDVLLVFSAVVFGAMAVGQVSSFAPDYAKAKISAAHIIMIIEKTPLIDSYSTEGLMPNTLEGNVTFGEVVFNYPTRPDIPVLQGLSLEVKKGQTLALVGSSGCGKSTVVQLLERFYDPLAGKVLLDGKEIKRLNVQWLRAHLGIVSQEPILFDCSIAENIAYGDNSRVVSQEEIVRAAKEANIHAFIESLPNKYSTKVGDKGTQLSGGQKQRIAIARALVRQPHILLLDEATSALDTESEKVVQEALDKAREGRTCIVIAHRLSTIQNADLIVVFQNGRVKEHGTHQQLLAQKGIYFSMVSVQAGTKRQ
UniProt Q9UNQ0: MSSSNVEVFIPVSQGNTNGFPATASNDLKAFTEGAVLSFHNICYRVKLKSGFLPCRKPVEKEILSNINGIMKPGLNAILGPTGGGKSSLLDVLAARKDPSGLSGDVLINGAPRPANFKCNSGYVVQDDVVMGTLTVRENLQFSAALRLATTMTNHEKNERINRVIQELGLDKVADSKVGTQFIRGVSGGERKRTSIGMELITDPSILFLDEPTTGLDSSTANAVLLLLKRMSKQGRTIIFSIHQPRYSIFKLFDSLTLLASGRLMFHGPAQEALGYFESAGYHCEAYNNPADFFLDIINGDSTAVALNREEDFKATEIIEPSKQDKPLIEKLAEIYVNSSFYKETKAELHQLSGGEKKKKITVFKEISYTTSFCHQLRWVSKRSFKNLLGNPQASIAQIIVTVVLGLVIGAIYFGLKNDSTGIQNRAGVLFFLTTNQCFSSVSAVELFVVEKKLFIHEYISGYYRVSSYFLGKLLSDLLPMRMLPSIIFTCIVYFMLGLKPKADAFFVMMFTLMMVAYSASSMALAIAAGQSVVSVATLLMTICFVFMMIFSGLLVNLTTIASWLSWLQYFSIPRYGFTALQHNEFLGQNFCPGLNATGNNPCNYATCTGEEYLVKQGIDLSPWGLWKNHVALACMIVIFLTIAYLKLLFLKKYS

“And” between values parts separate entries of the source, which are not always exact repeats. Equal values may be shown once. Where a name gives a salt, the structure may show the parent alone. Read-outs that look alike come from different tables or passages of the source.

Data set [1] deals with ABCB1 (Homo sapiens, UniProt P08183). The data set can be described thus: cell-based.
Data set [2] has as its target ABCG2 (Homo sapiens, UniProt Q9UNQ0). In words: Uptake and efflux assay, Ig-MXP3 vs parental Igrov1 cells. As to conditions: primary efflux screen, 100 nM substrate compared.

`COC(=O)C1=C(C)NC(C)=C(C(=O)OCCN(C)Cc2ccccc2)C1c1cccc([N+](=O)[O-])c1` (stereo not shown) [Nicardipine, nicardipine hydrochloride]: the IC50 in data set [1] is 1100 nM and 6800 nM; in data set [1] (IC50, inhibition of D2390 efflux, B1, substrate D2390 (BODIPY FL EDA) 500 nM, mean ± SD, n ≥ 2) it was 1200 ± 900 nM; in data set [1] (IC50, inhibition of T3168 efflux, B1, substrate T3168 (JC-1) 500 nM, mean ± SD, n ≥ 2), 3700 ± 800 nM.
Consider BODIPY FL prazosin [B7433], for which the “efflux by ABCG2 (in words)” value in data set [2] is “pan-ABCB1, -ABCC1, and -ABCG2 activity”.
